# Test results taken from patent publication US6673802B2, “Compounds specific to adenosine A3 receptor and uses thereof” (OSI Pharmaceuticals, Inc., priority 2000, dated 2004).
# Amino acid sequences for entries named in this document (tags omitted).
# UniProt P30542, whole entry: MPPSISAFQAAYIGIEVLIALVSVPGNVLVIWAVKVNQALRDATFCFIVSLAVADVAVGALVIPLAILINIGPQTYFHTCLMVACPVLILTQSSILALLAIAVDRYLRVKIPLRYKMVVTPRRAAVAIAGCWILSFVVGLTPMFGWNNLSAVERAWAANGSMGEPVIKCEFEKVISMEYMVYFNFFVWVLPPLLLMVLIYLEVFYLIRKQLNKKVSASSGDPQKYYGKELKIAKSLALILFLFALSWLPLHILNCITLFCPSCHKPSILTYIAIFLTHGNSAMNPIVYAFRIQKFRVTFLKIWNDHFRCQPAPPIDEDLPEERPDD
# Molecular target: A1 adenosine receptor (Homo sapiens, UniProt P30542)
# Assay: fus1-LacZ β-galactosidase assay in yeast expressing human A1 adenosine receptor
# Conditions: NECA concentration of 10^−8 M
compound,measurement,value
CCNC(=O)[C@H]1O[C@@H](n2cnc3c(N)ncnc32)[C@H](O)[C@@H]1O,stimulation of β-galactosidase activity,approximately 2 fold
